High-throughput results as filed in PubChem.
Sampled rows, rich in hits. Any-hit rate of the full collection: about 1.2%.
N-glyco inh: N-linked glycosylation inhibition; D54 ERlucT glycosylation luciferase reporter, 24 h; percent of 100 nM tunicamycin response; reporter increase, % at 12.5 µM; hit rate 0.23% among 360,000;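 active = mean luciferase reporter signal, scaled so untreated is 0 and the glycosylation-blocking control 100, at or above a set limit in every replicate; inconclusive = mean reaches the limit but not every replicate does; inactive = mean below the limit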;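 note: luciferase carries N-glycosylation sites so blocking glycosylation raises the light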
miR122 inh: inhibitors of miR-122 in Huh7 cells | activation (reporter increase), % at 12.5 µM | hit rate 0.3% among 340,000 | Huh7 miR-122 Renilla luciferase sensor, 48 h; neutral wells = 0, positive control = 100 | AID 602342;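 active = mean replicate activation score at least 90 and every replicate individually at or above 90; inconclusive = only one of the two criteria met; inactive = neither criterion met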;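 note: higher luciferase means less miR-122 activity so hits act as miR-122 inhibitors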
Cneo AK release: causes C. neoformans cell lysis | adenylate kinase release luminescence, 4 h; normalised: neutral wells 0, clomiphene wells 100 | lysis activity, % at 15 µM | hit rate 0.2% among 360,000 | AID 651654;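 active = mean lysis activity across replicates of at least 80%, whatever share of replicates individually reach that level; inactive = mean lysis activity below 80%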
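read-out = cell lysis signal | test system = log-phase Cryptococcus neoformans yeast cells | input = cells at 5 × 10^6 per mL | medium = fresh YPD growth medium | signal = luminescent adenylate kinase detection reagent | timing = 4 h at 37 °C static, read 1 h later | dosing = single dose | controls = Clomiphene as positive lysis control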
Yeast UUG start: modulators of start codon recognition fidelity in yeast; AID 602363; hit rate 0.13% among 350,000; activity score, % at 18.7 µM; S. cerevisiae UUG-firefly luciferase reporter, luminescence/redox ratio;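 active = replicate mean at a twofold rise or more, about +100% in these data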;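 note: firefly luciferase made from a UUG start codon reports start codon fidelity; reporter light over untreated wells divided by growth signal over untreated wells; some hits fall short of that in this replicate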
C2C12 statin: protects C2C12 myotubes from simvastatin toxicity. rescue of ATP level, % at 7.49 µM. ATP luminescence, 48 h; scaled: DMSO 0, geranylgeraniol control 100. AID 602340. hit rate 0.78% among 330,000;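 active = mean ATP rescue above about 67%, or every replicate alone reaching that limit, limit read from the data, passing the limit was not always enough; inconclusive = no clear call, values can overlap the other calls; inactive = mean under the limit and some replicate under it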;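 note: myotubes were challenged with 10 µM simvastatin during compound exposure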
Numbers stand for hits; - = inactive; ? = inconclusive; . = no result; [ ] = another dose, or the depositor's remark.

SMILES	N-glyco inh	miR122 inh	Cneo AK release	Yeast UUG start	C2C12 statin
COc1cc(-c2cc(NC(C)=O)c3ncc(-c4cc(OC)c(OC)c(OC)c4)n3c2)cc(OC)c1OC	-	.	-	-	-
COc1cc(-c2cnc3c(NC(C)=O)cc(-c4ccccc4CN(C)C)cn23)cc(OC)c1OC	40	-	-	-	-
CCC(C(=O)c1ccc(O)cc1)c1ccccc1 (stereo not drawn)	-	-	-	-	-
CCC(C(=O)N(C(C)C)C(C)C)c1ccccc1 (stereo not drawn)	-	-	-	-	130
C[C@H](CO)N1C[C@H](C)[C@H](CN(C)C(=O)NC2CCCCC2)Oc2ccc(NC(=O)CCC(F)(F)F)cc2CC1=O	.	-	-	-	-
CCS(=O)(=O)N1CCCCN2[C@H](C1)[C@@H](c1ccc(-c3ccc(C#N)cc3)cc1)[C@@H]2CO	.	-	91	-	-
C[C@@H](O)C#Cc1ccc([C@@H]2[C@H](CO)N3CCCCN(CC4CC4)C[C@@H]23)cc1	.	-	103	-	-
C[C@@H](O)C#Cc1ccc([C@H]2[C@H](CO)N3CCCCN(CC4CC4)C[C@@H]23)cc1	.	-	-	-	-
COc1cccc(S(=O)(=O)N2CCCCN3[C@@H](CO)[C@@H](c4ccc(C#CCC(C)C)cc4)[C@@H]3C2)c1	.	-	84	-	-
CCOC(=O)N1CCN(C(=O)c2cc(-n3cnnc3)ccc2Cl)CC1	-	-	-	-	95
C[C@@H]1CN([C@@H](C)CO)C(=O)c2cc(NC(=O)Nc3ccc(F)cc3)ccc2O[C@@H]1CN(C)C(=O)NC1CCCCC1	.	-	-	-	-
Cc1ccccc1S(=O)(=O)N[C@H]1CC[C@H](CCNS(=O)(=O)c2cccc(F)c2)O[C@H]1CO	.	.	93	-	-
Cc1ccccc1S(=O)(=O)N[C@@H]1CC[C@H](CCNS(=O)(=O)c2cccc(F)c2)O[C@H]1CO	.	.	90	-	-
O=C(Nc1cccc(F)c1)N[C@H]1CC[C@H](CCNS(=O)(=O)c2cccc(Cl)c2)O[C@@H]1CO	.	.	105	.	-
Cc1ccccc1S(=O)(=O)N[C@@H]1CC[C@H](CCNS(=O)(=O)c2cccc(F)c2)O[C@@H]1CO	.	.	-	-	-
Cc1cccc(-c2ccc([C@H]3[C@H](CO)N4CCCCN(C(=O)c5ccc6c(c5)OCO6)C[C@@H]34)cc2)c1	.	-	91	-	-
CC(C)NC(=O)Nc1ccc2c(c1)C(=O)N([C@@H](C)CO)C[C@@H](C)[C@H](CN(C)C(=O)Cc1ccccc1)OCCCC[C@@H](C)O2	.	-	95	.	.
COc1ccc(NC(=O)Nc2ccc3c(c2)C(=O)N([C@@H](C)CO)C[C@H](C)[C@H](CN(C)C(=O)Cc2ccccc2)OCCCC[C@@H](C)O3)cc1	.	-	-	-	.
COc1ccc(NC(=O)Nc2ccc3c(c2)C(=O)N([C@H](C)CO)C[C@H](C)[C@H](CN(C)C(=O)Cc2ccccc2)OCCCC[C@@H](C)O3)cc1	.	-	-	-	.
COc1ccc(NC(=O)Nc2ccc3c(c2)C(=O)N([C@@H](C)CO)C[C@@H](C)[C@H](CN(C)C(=O)Cc2ccccc2)OCCCC[C@H](C)O3)cc1	.	-	115	-	.
COc1ccc(NC(=O)Nc2ccc3c(c2)C(=O)N([C@H](C)CO)C[C@H](C)[C@H](CN(C)C(=O)Cc2ccccc2)OCCCC[C@H](C)O3)cc1	.	-	101	-	.
COC(=O)C[C@H]1C[C@H]2c3cc(NC(=O)Nc4ccccc4F)ccc3O[C@H]2[C@@H](CO)O1	.	-	-	-	-
CC(C)C#Cc1ccc2c(c1)O[C@H](CN(C)C(=O)C1CCCCC1)[C@H](C)CN([C@H](C)CO)S2(=O)=O	.	-	.	-	-
COc1ccccc1N1CCN(C(=O)c2ccc(Cn3c(=O)[nH]c4ccsc4c3=O)cc2)CC1	-	118	-	-	.
O=C(Nc1cccs1)NC1CCCC1	-	-	-	-	109
SMILES	N-glyco inh	miR122 inh	Cneo AK release	Yeast UUG start	C2C12 statin
CCOC(=O)Nc1ccc(C)cc1Br	-	-	-	-	108
CCOC(=O)Nc1cc(NC(=O)OCC)c(C)nc1C	-	.	.	.	.
CCc1nnc(NC(=O)CSc2nnc(-c3ccc(NS(=O)(=O)c4ccccc4)cc3)o2)s1	-	-	-	-	108
CC(=O)c1cc(C#N)c(Oc2ccc(Cl)cc2Cl)nc1C	-	-	-	-	167
CC(=O)c1cc(C#N)c(Oc2ccccc2)nc1C	-	-	-	-	105
O=C(CN1CCc2ccccc2C1)Nc1ccc(Br)cc1	-	-	-	-	-
CCc1ccc(NC(=O)CN2CCc3ccccc3C2)cc1	-	265	-	-	-
CCOC(=O)c1cc2ccc(OC)c(OC)c2c(=O)s1	-	-	.	.	116
COc1ccc2cc(C(=O)NCCO)sc(=O)c2c1OC	-	-	-	-	-
COc1ccc(N=Cc2sc(O)c3ccccc23)cc1	-	-	-	-	180
COc1ccc(N=Cc2c(O)c3ccccc3n2C(C)=O)cc1	-	-	-	-	-
COc1ccc(CNC(=O)C[C@H]2C[C@H]3c4cc(NC(=O)CC5CC5)ccc4O[C@H]3[C@H](CO)O2)cc1	.	-	-	-	-
COc1ccc(S(=O)(=O)Nc2cccc3c2O[C@@H](CN(C)C(=O)Nc2ccc(F)cc2)[C@H](C)CN([C@@H](C)CO)C3=O)cc1	.	-	-	-	-
C[C@H](CO)N1C[C@H](C)[C@@H](CN(C)C(=O)Nc2ccc(F)cc2)Oc2c(NS(=O)(=O)c3ccccc3)cccc2C1=O	.	128[16.7 µM]	102	-	-
COc1ccc(S(=O)(=O)Nc2cccc3c2O[C@H](CN(C)C(=O)Nc2ccc(F)cc2)[C@H](C)CN([C@@H](C)CO)C3=O)cc1	.	-	-	-	130
CN(C)c1nc(C=C(C#N)C#N)c(Cl)n1-c1ccc(F)cc1	-	.	.	.	.
CCCC#Cc1ccc2c(c1)O[C@H](CN(C)CCC)[C@H](C)CN([C@@H](C)CO)S2(=O)=O	.	-	103	-	-
COc1ccccc1-c1ccc2c(c1)O[C@@H](CN(C)C(=O)c1cccnc1)[C@H](C)CN([C@@H](C)CO)S2(=O)=O	.	-	84	.	-
COc1ccc(C#Cc2ccc3c(c2)O[C@H](CN(C)C(=O)Nc2cccc(OC)c2)[C@@H](C)CN([C@H](C)CO)S3(=O)=O)cc1	.	-	-	-	?
C[C@H](CO)N1C[C@H](C)[C@H](CN(C)S(C)(=O)=O)Oc2cc(C#Cc3ccccc3)ccc2S1(=O)=O	.	-	-	-	-
COc1ccc(C#Cc2ccc3c(c2)O[C@H](CN(C)C(=O)Nc2cccc(OC)c2)[C@H](C)CN([C@H](C)CO)S3(=O)=O)cc1	.	-	-	-	92
C[C@H](CO)N1C[C@H](C)[C@@H](CN(C)S(C)(=O)=O)Oc2cc(C#Cc3ccccc3)ccc2S1(=O)=O	.	130[16.7 µM]	91	-	-
O=C(NCC[C@@H]1CC[C@H](NC(=O)C2CCC2)[C@@H](CO)O1)c1cnccn1	.	.	-	-	-
